Source: patent US9012455B2, “Pharmaceutical compositions containing an indoyl isoquinoline containing compound and uses thereof” (The Regents of the University of California, priority 2006, dated 2015)

Chains of the proteins cited; added tags and fusions are not shown.
UniProt Q06609, whole entry: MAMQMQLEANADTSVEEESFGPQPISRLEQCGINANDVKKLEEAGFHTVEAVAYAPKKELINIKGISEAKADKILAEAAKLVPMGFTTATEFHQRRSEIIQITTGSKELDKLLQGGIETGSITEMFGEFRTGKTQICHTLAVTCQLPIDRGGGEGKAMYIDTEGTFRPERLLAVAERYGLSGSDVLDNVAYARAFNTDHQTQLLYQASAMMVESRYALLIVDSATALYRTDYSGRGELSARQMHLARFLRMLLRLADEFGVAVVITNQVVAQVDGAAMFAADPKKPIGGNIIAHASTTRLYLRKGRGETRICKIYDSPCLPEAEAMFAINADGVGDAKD

Target: Rad51-BRC repeat binding (Homo sapiens, UniProt Q06609)
Assay: SPR (Biacore) competitive binding assay, solution competition format
Settings: read-out: median inhibition concentration

In the case of `O=S(=O)(Cc1ccccc1)N1C=Cc2ccccc2[C@H]1c1c[nH]c2ccccc12`, the pIC50 was 6.00.

pIC50: −log10 of the molar value.
